The text below walks through data of ChEMBL document CHEMBL1126118, “Synthesis and biological activity of ketomethylene pseudopeptide analogues as thrombin inhibitors” (J Med Chem, 1992).

The target in the test is Prothrombin (Homo sapiens, UniProt P00734). The test can be described thus: In vitro inhibitory activity against thrombin.

Turning to `NC(N)=NCCCC(NC(=O)[C@@H]1CCCN1C(=O)C(N)Cc1cccc2ccccc12)C(=O)CCC(=O)N1CCCCC1` (stereo partly specified), affinity was put at a Ki of 13.5 µM.

As usually defined, the Ki is a dissociation constant, usually derived from enzyme kinetics or from competition with a known ligand.
